# Ab-14 heavy chain CDR variants: yeast mating affinities

The measurements come from Engelhart et al. 2022 (doi:10.1038/s41597-022-01779-4) through the FLAb antibody collection.

Binding partner: SARS-CoV-2 spike HR2 peptide, sequence PDVDLGDISGINAS.

The variants keep the light chain, the linker and the frameworks of Ab-14 (scFv order VH, a 15-residue (Gly4Ser)3 linker, VL).
VH: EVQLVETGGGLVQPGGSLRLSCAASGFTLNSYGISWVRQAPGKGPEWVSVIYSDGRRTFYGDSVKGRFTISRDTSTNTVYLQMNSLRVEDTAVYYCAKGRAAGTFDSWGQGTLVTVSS
VL: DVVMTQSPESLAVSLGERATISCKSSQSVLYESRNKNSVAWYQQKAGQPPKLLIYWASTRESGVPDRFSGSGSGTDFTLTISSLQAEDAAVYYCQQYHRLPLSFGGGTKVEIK

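The parent was found by panning a naive human phage display library on the peptide. AAYL49 was designed without a model: most single CDR substitutions and a random sample of double and triple ones. The assay is AlphaSeq: two haploid yeast populations carry antibody and antigen on their surface. After mating in shaken culture at 30 °C for 16 h, diploids were selected and their barcode pairs sequenced. Each replicate has its own calibration line, from reference interactions of the BCL2 family. The assay was run in three technical replicates.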

The parent's heavy chain CDRs are GFTLNSYGIS, VIYSDGRRTFYGDSVK, GRAAGTFDS; each variant's own CDRs replace them letter for letter. Values are log10 of the apparent Kd in nM; lower means stronger binding. Averages over replicates are reported, and they cover detected replicates only. Where no diploid with the target was found in that replicate, the entry reads "ND": below detection, most likely a poor binder, though not proof of it. For reference, the parent read 0.65 as the reference entry and 4.11 (one replicate of three) as a member of this library. Empty control strains, which show no peptide, gave a signal in 15% of pairings with library AAYL49; the median was 4.06 and 95% of these signals were weaker than 2.83. No background was subtracted. The control count says in how many pairings with the empty strains this scFv gave a signal, with their mean in brackets.

| # | CDR-H1 | CDR-H2 | CDR-H3 | log10 Kd, replicates | mean, log10 nM | empty controls |
|---|---|---|---|---|---|---|
| 1 | GFTLNSVGIS | VIYSDGRRDFYKDSVK | GRAAGTFDS | ND 4.36 ND | 4.36 | 0 of 9 |
| 2 | GFTLNSYGIS | VLYSDGRRTFYGDSWK | GRAAGTLDS | ND ND ND | ND | 0 of 9 |
| 3 | GFTLNSYGIS | VIFSDGRETFYGDSVK | GRAASTFDS | ND ND ND | ND | 4 of 9 (4.63) |
| 4 | GFTLNSYGIS | VLYSDGMRTPYGDSVK | GRAAGTFDS | ND 4.36 ND | 4.36 | 1 of 9 (4.65) |
| 5 | GYTLNSYGHS | VIYRDGRRTFYGDSVK | GRAAGTFDS | ND ND ND | ND | 0 of 9 |
| 6 | GFTLNSYGIS | VIYSRGRRTAYGDSVK | GRAAGTFDH | ND ND ND | ND | 0 of 9 |
| 7 | GFTLYFYGIS | VIYSDGRRTFYGDSVK | GRAAGGFDS | 3.86 4.75 ND | 4.30 | 5 of 9 (3.62) |
| 8 | TFTLNSYGIS | QIYLDGRRTFYGDSVK | GRAAGTFDS | ND 3.69 ND | 3.69 | 6 of 9 (5.03) |
| 9 | KFTLNSYFIS | VIYSDGRRTFYGDSVK | GRAAGTFDQ | ND ND ND | ND | 1 of 9 (2.31) |
| 10 | GFTDNSYGCS | VIMSDGRRTFYGDSVK | GRAAGTFDS | ND ND ND | ND | 0 of 9 |
| 11 | GFTWNLYGIS | SIYSDGRRTFYGDSVK | GRAAGTFDS | ND ND ND | ND | 1 of 9 (3.77) |
| 12 | GFDLNSTGIS | VIYSDGRRTFYGDSVK | GRAAGPFDS | 5.77 ND 3.88 | 4.82 | 2 of 9 (3.60) |
| 13 | GFTLNLYGCS | VIYSDGRRTFYGDSVK | GREAGTFDS | ND 3.67 4.42 | 4.05 | 3 of 9 (4.34) |
| 14 | GFELNSYGIS | VIYTDGRRTFYGDSVK | PRAAGTFDS | 1.75 ND 3.15 | 2.45 | 0 of 9 |
| 15 | GTTLNSTGIS | VMYSDGRRTFYGDSVK | GRAAGTFDS | 3.82 ND 6.45 | 5.14 | 6 of 9 (4.58) |
| 16 | GFTLDSYTIS | LIYSDGRRTFYGDSVK | GRAAGTFDS | ND 3.71 ND | 3.71 | 0 of 9 |
| 17 | TFTLNGYGIS | VIYSDGRRTFYGDSVK | GYAAGTFDS | ND ND ND | ND | 0 of 9 |
| 18 | GFTLNSYGIS | VDYSDGQRTFYGDSVK | GRAAGTFWS | ND 3.62 4.64 | 4.13 | 3 of 9 (4.51) |
| 19 | GFTYNSYGIS | VIYSDGRRTFYGDSLK | GRAAGTFDS | ND ND ND | ND | 1 of 9 (5.29) |
| 20 | GQTLNSYGIS | VIYSDGRRTFYFDSVK | GRAYGTFDS | ND ND ND | ND | 0 of 9 |
| 21 | GFTLNSYGIS | VSYSDGMRTFYIDSVK | GRAAGTFDS | 2.77 1.58 3.41 | 2.59 | 0 of 9 |
| 22 | GLTLNSYGIS | VIYSDGRRTFYGDSVK | GRAQGTFLS | ND ND ND | ND | 1 of 9 (4.09) |
| 23 | GFNLNSYGIS | VDYSDGMRTFYGDSVK | GRAAGTFDS | ND 4.01 ND | 4.01 | 0 of 9 |
| 24 | GFTLNEYGIS | VIYSDGRRTFSGDSVK | GRAAGTFDS | 1.16 0.97 1.05 | 1.06 | 1 of 9 (4.20) |
| 25 | GFTLNSYGIS | VIYSDGRRTFYFDSVY | GRAAGTFDT | ND ND ND | ND | 1 of 9 (4.88) |
| 26 | GFTLNSYGIS | VIYSDGRRTFYCVSVK | GRAAGTFDR | ND 3.67 ND | 3.67 | 1 of 9 (5.29) |
| 27 | GFTLNNYGIS | VIYSDGRCTQYGDSVK | GRAAGTFDS | ND ND ND | ND | 2 of 9 (3.44) |
| 28 | GFGLNSLGIS | VIYSDGRRTFYHDSVK | GRAAGTFDS | 1.71 1.82 2.27 | 1.93 | 1 of 9 (4.39) |
| 29 | GFTLNSYQIS | VIYSDGRRTFYGDSVK | GRAAGKFDQ | ND ND ND | ND | 0 of 9 |
| 30 | GFTLNSDGIS | VIYKDGRCTFYGDSVK | GRAAGTFDS | ND 4.71 3.90 | 4.31 | 2 of 9 (4.32) |
| 31 | GFWLNDYGIS | VIYSDGRRTFDGDSVK | GRAAGTFDS | ND ND ND | ND | 0 of 9 |
| 32 | GFTLNSYGPS | VIYLDGRRTFYGDSVK | GRAAGTFDS | ND ND ND | ND | 0 of 9 |
| 33 | GFTLNSYGIP | VIYSDGDRTFYGDSVK | GRAAGTFWS | ND ND ND | ND | 0 of 9 |
| 34 | GFTKNSYGIS | VIYSDGRLTFYGDSVK | GRWAGTFDS | 4.14 ND ND | 4.14 | 0 of 9 |
| 35 | GFTLNSYGIS | VIYSDGRQTFYGDIVK | GRAAGTFSS | ND ND ND | ND | 0 of 9 |
| 36 | GFTLNSYGIS | VIYSDGRRTEYGDSVK | GQAAGTADS | 1.36 1.46 1.94 | 1.59 | 1 of 9 (3.82) |
| 37 | MFTNNSYGIY | VIYSDGRRTFYGDSVK | GRAAGTFDS | ND ND ND | ND | 1 of 9 (3.79) |
| 38 | GFTLNSYYIS | VIYSDGRRTFYGDSVQ | GRAAGTYDS | 5.35 ND ND | 5.35 | 0 of 9 |
| 39 | GFTLNSYGIS | VILSRGRRTFDGDSVK | GRAAGTFDS | ND 3.38 ND | 3.38 | 2 of 9 (3.76) |
| 40 | GFTKNSYGIS | VDYSAGRRTFYGDSVK | GRAAGTFDS | ND ND ND | ND | 0 of 9 |
| 41 | GFTLNSYKIS | VIYSDGRRTFYGDSVK | GRGAGTFDS | ND ND ND | ND | 2 of 9 (3.26) |
| 42 | GFTLNSYSIS | VIYQDGRRTFYGDSVK | GRAAGLFDS | ND ND ND | ND | 3 of 9 (3.62) |
| 43 | GFTQNSYGIF | VIYSDGRRTFYGDSVK | GHAAGTFDS | ND ND ND | ND | 2 of 9 (3.19) |
| 44 | GFTLNSYGIS | VIYSLGRRTFYGDSVK | GRAAGLHDS | 3.41 ND 3.83 | 3.62 | 2 of 9 (4.20) |
| 45 | GFTLNSYGIS | VIYSDGKRLFYGDSVD | GRAAGTFDS | 3.33 3.06 3.51 | 3.30 | 5 of 9 (4.80) |
| 46 | GFTLNSYGIS | VIYSDGRRTFYGDEVK | GRAATTFDS | ND ND ND | ND | 0 of 9 |
| 47 | GFTLNSYQIS | VITSDGRRTFYGDSVK | GRAAGTSDS | ND 4.64 ND | 4.64 | 0 of 9 |
| 48 | GFTLNEYGIS | VIYSDGRRTHYGDSVK | GRFAGTFDS | ND ND ND | ND | 0 of 9 |
| 49 | EFTLNSYEIS | VIYNDGRRTFYGDSVK | GRAAGTFDS | ND ND ND | ND | 0 of 9 |

The 5 strongest on average among those seen in every replicate, once more:

{"CDR-H1": "GFTLNEYGIS", "CDR-H2": "VIYSDGRRTFSGDSVK", "CDR-H3": "GRAAGTFDS", "log10 Kd, replicates": "1.16 0.97 1.05", "mean, log10 nM": "1.06", "empty controls": "1 of 9 (4.20)"}
{"CDR-H1": "GFTLNSYGIS", "CDR-H2": "VIYSDGRRTEYGDSVK", "CDR-H3": "GQAAGTADS", "log10 Kd, replicates": "1.36 1.46 1.94", "mean, log10 nM": "1.59", "empty controls": "1 of 9 (3.82)"}
{"CDR-H1": "GFGLNSLGIS", "CDR-H2": "VIYSDGRRTFYHDSVK", "CDR-H3": "GRAAGTFDS", "log10 Kd, replicates": "1.71 1.82 2.27", "mean, log10 nM": "1.93", "empty controls": "1 of 9 (4.39)"}
{"CDR-H1": "GFTLNSYGIS", "CDR-H2": "VSYSDGMRTFYIDSVK", "CDR-H3": "GRAAGTFDS", "log10 Kd, replicates": "2.77 1.58 3.41", "mean, log10 nM": "2.59", "empty controls": "0 of 9"}
{"CDR-H1": "GFTLNSYGIS", "CDR-H2": "VIYSDGKRLFYGDSVD", "CDR-H3": "GRAAGTFDS", "log10 Kd, replicates": "3.33 3.06 3.51", "mean, log10 nM": "3.30", "empty controls": "5 of 9 (4.80)"}